Literature values, collected in publication PMC11505038, “Kalata B1 Enhances Temozolomide Toxicity to Glioblastoma Cells” (Biomedicines, 2024).

Tested on: blood–brain barrier
Conditions: mouse model; cited from earlier work

For chlorotoxin, the “Passage across the blood–brain barrier” value is listed as “did cross the blood–brain barrier”.
